From patent US20200277350A1 come the findings set out here.

As usually defined, the EC50 is the concentration giving half of the maximal effect. Read a high EC50 as a less potent agent.

This test has as its target Human IL10R1 (R&D, 9100-R1-050) (human) (UniProt Q13651). Put plainly: ELISA, plate coated with human IL10R1, detection with goat anti-hIgG-HRP. Background: ELISA stands for enzyme-linked immunosorbent assay.

Erb-(IL10)2 (Fc fusion) displayed an EC50 of 2.94 ng/mL.
